Measurements: patent publication US7045307B2, “Method for measuring no synthase activity” (Gruenenthal GmbH, priority 2000, dated 2006)

Legend:
[1] = biological target: T1, isolated nNOS from rat cerebella (Rattus norvegicus, UniProt P29476); assay: Citrulline assay according to Bredt and Snyder (1990), separation by column chromatography; format: biochemical
Excerpt: On completion of the reaction the enzyme mixtures are passed over separate cation exchange columns. Elution of the [^3H]L-citrulline and determination of the eluates then takes place on a β-counter. The disadvantage of this method is that column chromatography has to take place separately for each enzyme mixture (e.g. 96 chromatography columns are needed per 96 well microtiter plate).
The precipitate is discarded.
The separation was effected by means of column chromatography.

[2] = biological target: T1, isolated nNOS from rat cerebella; assay: Arginine assay according to the invention (HTS NOS assay, cation exchanger filter MTP)

- IC50 [1]: 16.7 µM
- IC50 [2]: 6.98 µM
SMILES: CC(=N)NCc1cccc(CN)c1 [1400 W, N-[3-(aminomethyl)benzyl]acetamidine]
